## Yeast mating assay 1: variants of the scFv Ab-14

The measurements come from Engelhart et al. 2022 (doi:10.1038/s41597-022-01779-4) through the FLAb antibody collection.

Binding partner: SARS-CoV-2 spike HR2 peptide, sequence PDVDLGDISGINAS.

Parent: Ab-14, a human scFv built as VH, a (GGGGS)3 linker, VL. Only the CDRs of the heavy chain vary.
VH: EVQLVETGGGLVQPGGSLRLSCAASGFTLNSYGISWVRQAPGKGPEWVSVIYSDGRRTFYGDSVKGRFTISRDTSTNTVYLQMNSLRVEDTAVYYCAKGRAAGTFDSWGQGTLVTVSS
VL: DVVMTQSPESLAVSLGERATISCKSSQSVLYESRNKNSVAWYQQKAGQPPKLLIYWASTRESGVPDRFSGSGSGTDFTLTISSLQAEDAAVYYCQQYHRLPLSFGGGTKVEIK

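Variants in AAYL49 differ from the parent at up to three CDR positions; double and triple changes were sampled at random. The scFvs were displayed on barcoded MATa yeast, the peptide on MATalpha yeast. The frequency of each diploid, read from paired DNA barcodes, reflects how well the two displayed proteins bind. The ratio of observed to expected reads was calibrated, replicate by replicate, on BCL2-family standards whose Kd was known from biolayer interferometry. Each pool was mated in three replicate cultures.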

The parent's heavy chain CDRs are GFTLNSYGIS, VIYSDGRRTFYGDSVK, GRAAGTFDS; each variant's own CDRs replace them letter for letter.
Affinities are written as log10 Kd with Kd in nM; a lower number is a better binder.
An entry "n.d." has no value in the source: the pair was not observed among the diploids in that replicate. This suggests poor binding but is not conclusive.
As a blank, each scFv also met three strains without target: over library AAYL49, 15% of these pairings were detected, typically at 4.06 and seldom below 2.83. The control count says in how many pairings with the empty strains this scFv gave a signal, with their mean in brackets.

CDR-H1,CDR-H2,CDR-H3,"log10 Kd, replicates",signal with controls
GMTLNSYGIS,VIYSDGRRTFYGVSVK,GRAAGTFDS,n.d. n.d. n.d.,0 of 9
GFTLNSYGIS,HIYSDGRCTFYGDSVK,GRAAGTFDS,n.d. n.d. n.d.,1 of 9 (5.53)
GFTLNSYGIS,VICSDGRRTFYNDSVK,GRAAGTFNS,n.d. n.d. n.d.,2 of 9 (4.18)
GFTLNSYGIS,VIYSGGRRTFYGDIVK,GRAIGTFDS,n.d. n.d. 3.01,1 of 9 (3.73)
GFTLNSYGIC,VIYSDGRRTVYGDSVK,GRACGTFDS,n.d. n.d. 3.88,1 of 9 (3.38)
GFTLNSYGIS,VIGMDGRRTFYGDSTK,GRAAGTFDS,4.32 4.01 n.d.,0 of 9
GFTQNEYGIS,VIYSDGRRTFYGDSVK,LRAAGTFDS,4.56 n.d. 3.81,1 of 9 (4.13)
GFTVNSYRIS,VIYSDGRRTFYGDSVK,GRAAGTFDS,5.77 5.02 n.d.,3 of 9 (3.37)
GNTLNSYGES,VIYSDGRRTFYGDSVK,GRAAGVFDS,n.d. 4.09 n.d.,0 of 9
GFTLNSYGIS,VGYSDGYRTFYPDSVK,GRAAGTFDS,n.d. n.d. n.d.,0 of 9
GFCLNSYGIS,VIYSDGRRTFIGDSVK,GRAAGTFDF,3.64 n.d. 3.04,1 of 9 (3.89)
GFTLNSYGIS,VIYSDGRRTQYGDLVK,RRAAGTFDS,1.71 1.99 1.46,0 of 9
GFTLNSYPIS,VIYSDGRRTAYGDSVK,GRAAWTFDS,n.d. n.d. n.d.,0 of 9
GFTLNWYGIS,VIYSDGRRTFYGDSVK,GRAVGFFDS,n.d. n.d. n.d.,1 of 9 (2.22)
GFTLNSYGIS,VIYSDGRRTFHGMSVK,GWAAGTFDS,n.d. n.d. n.d.,0 of 9
GFTLNSYGIS,FIYSDGRRTFYGDSVK,GRAAGMFMS,n.d. n.d. n.d.,2 of 9 (3.69)
GTTLNSYGIS,VIYSDGRRTFYGDSVK,MRAAGTFDS,2.60 2.51 2.66,6 of 9 (4.35)
GFTLNSYGIS,GIYSDGRRTFYLKSVK,GRAAGTFDS,n.d. 2.50 n.d.,1 of 9 (3.02)
GFTLLSYGIS,VIYSDGIRTFYGDSVK,GRAARTFDS,n.d. n.d. n.d.,0 of 9
GFSLNSYGIS,VIYSDGRRTFEGDSVK,GRAAGTFDD,2.02 1.43 1.76,0 of 9
GQTLNSYGIS,VIYTDGRRTFYGDSVK,GRAAGTFRS,4.59 2.81 2.95,2 of 9 (3.78)
GFTLNSYGIS,VIYGDGRRTFYGDSVK,GRAAGAPDS,n.d. n.d. n.d.,0 of 9
GFTLNSYGIS,VIYSDQRRTFYGDGVK,GRAAGTNDS,n.d. 2.99 n.d.,0 of 9
GFTLNSYGIS,EIESDGRRTFYGDSVF,GRAAGTFDS,n.d. n.d. n.d.,0 of 9
GFTLNSYGIS,VIYSDGRRTFYGDSVK,QRAAGIFDS,n.d. n.d. n.d.,0 of 9
GFTLNSYGIS,VIYSDGRRDFYGDSVK,QRAAGQFDS,2.45 3.25 n.d.,1 of 9 (4.33)
GFTLNSYGIS,VIYSDGRRTFVGDSVK,GRANGTFDI,n.d. n.d. n.d.,0 of 9
VVTLQSYGIS,VIYSDGRRTFYGDSVK,GRAAGTFDS,2.00 2.38 2.95,1 of 9 (3.69)
GFTLNSYGPS,VIYSDGRRTFYFDSVK,GRAAGTFYS,n.d. n.d. n.d.,0 of 9
GFTLNSKGIS,VIYSDGRRTFYGDSVK,GRAIRTFDS,n.d. n.d. n.d.,0 of 9
GNTLNFYCIS,VIYSDGRRTFYGDSVK,GRAAGTFDS,3.70 n.d. 3.47,4 of 9 (4.00)
GFTLNSYGIS,VIYSDGRREFYGDSVH,PRAAGTFDS,n.d. 4.35 4.37,3 of 9 (3.84)
GFTLNSYGIS,VIYSDGNRTFYGDPVK,GRAAGTFDN,3.09 2.86 2.16,1 of 9 (4.57)
GFTLVSYGIS,VIYSDGRRTFYGDSVK,GRSAGTFDL,2.73 2.20 2.39,0 of 9
GFTLNSYGKS,VIYSDGARTFYGDSVK,DRAAGTFDS,n.d. 2.64 n.d.,0 of 9
GFTLNSYGIS,VIVSGGRRTFYGDSVK,GRAAQTFDS,n.d. n.d. 4.56,1 of 9 (4.20)
GHTLNSYGIS,VIYSDGRRTFYGGSVK,GRAAGSFDS,n.d. 1.92 n.d.,0 of 9
GFTLNSYGIS,VIYSDQRRTFYGDSVK,GRAAGTFDS,n.d. n.d. n.d.,1 of 9 (5.09)
GFTLNSYGIS,VIYSDGRRTFMGDDHK,GRAAGTFDS,n.d. 2.95 3.70,3 of 9 (4.80)
GFTLNTYGIS,VIYSDGRDTFYGDSVK,GRLAGTFDS,3.40 2.98 5.58,0 of 9
GFTLNWYGIS,VIYSDGRRTFYGDSVK,GRAAGTLDS,1.79 1.79 1.60,0 of 9
KFTLNSYGIS,VEYSDGRRTFYGPSVK,GRAAGTFDS,3.67 n.d. n.d.,1 of 9 (2.73)
GYTLNRYGIS,VIYSDGRRTFYGDLVK,GRAAGTFDS,n.d. n.d. n.d.,0 of 9
GFTLNSYGIS,VIYSDGRRGFYGDSVK,GRAASTFDS,4.18 n.d. n.d.,5 of 9 (4.01)
RFTLNSNGIS,VIYSDGRRTFYGDHVK,GRAAGTFDS,4.10 4.13 5.59,5 of 9 (4.95)
GFPLNSYGIS,VIYSDGRRTFYGDEVK,GRAAGTSDS,n.d. n.d. 3.06,0 of 9

The opening 8 entries, copied out:

| CDR-H1 | CDR-H2 | CDR-H3 | log10 Kd, replicates | signal with controls |
|---|---|---|---|---|
| GMTLNSYGIS | VIYSDGRRTFYGVSVK | GRAAGTFDS | n.d. n.d. n.d. | 0 of 9 |
| GFTLNSYGIS | HIYSDGRCTFYGDSVK | GRAAGTFDS | n.d. n.d. n.d. | 1 of 9 (5.53) |
| GFTLNSYGIS | VICSDGRRTFYNDSVK | GRAAGTFNS | n.d. n.d. n.d. | 2 of 9 (4.18) |
| GFTLNSYGIS | VIYSGGRRTFYGDIVK | GRAIGTFDS | n.d. n.d. 3.01 | 1 of 9 (3.73) |
| GFTLNSYGIC | VIYSDGRRTVYGDSVK | GRACGTFDS | n.d. n.d. 3.88 | 1 of 9 (3.38) |
| GFTLNSYGIS | VIGMDGRRTFYGDSTK | GRAAGTFDS | 4.32 4.01 n.d. | 0 of 9 |
| GFTQNEYGIS | VIYSDGRRTFYGDSVK | LRAAGTFDS | 4.56 n.d. 3.81 | 1 of 9 (4.13) |
| GFTVNSYRIS | VIYSDGRRTFYGDSVK | GRAAGTFDS | 5.77 5.02 n.d. | 3 of 9 (3.37) |